Assay [1] concerns Mus musculus. In words: Ataxia produced in mice by intraperitoneal administration of compound at a dose of 512 umol/kg; total no. of mice tested is 0.
Assay [2] has as its system Mus musculus. Put plainly: Number of deaths occurred after intraperitoneal administration of Compound at a dose of 512 umol/kg; total no. of mice tested is 5.
The subject of assay [3] is Mus musculus. Put plainly: Ataxia produced in mice by intraperitoneal administration of compound at a dose of 410 umol/kg; total no. of mice tested is 3.
Assay [4] deals with Mus musculus. Put plainly: Number of deaths occurred after intraperitoneal administration of Compound at a dose of 410 umol/kg; total no. of mice tested is 5.
The subject of assay [5] is Mus musculus. In words: Number of deaths occurred after intraperitoneal administration of Compound at a dose of 328 umol/kg; total no. of mice tested is 5.
Assay [6] concerns Mus musculus. Put plainly: Ataxia produced in mice by intraperitoneal administration of compound at a dose of 262 umol/kg; total no. of mice tested is 5.
Assay [7] relates to Mus musculus. Put plainly: Ataxia produced in mice by intraperitoneal administration of compound at a dose of 328 umol/kg; total no. of mice tested is 5.
Assay [8] has as its system Mus musculus. In words: Number of deaths occurred after intraperitoneal administration of Compound at a dose of 262 umol/kg; total no. of mice tested is 5.
Assay [9] relates to Mus musculus. In words: Ataxia produced in mice by intraperitoneal administration of compound at a dose of 410 umol/kg; total no. of mice tested is 5.
Assay [10] relates to Mus musculus. Put plainly: Ataxia produced in mice by intraperitoneal administration of compound at a dose of 410 umol/kg; total no. of mice tested is 4.
The test system of assay [11] is Mus musculus. Put plainly: Ataxia produced in mice by intraperitoneal administration of compound at a dose of 512 umol/kg; total no. of mice tested is 1.

For the molecule `O[C@H]1CC[C@@](c2ccccc2)(N2CCCCC2)CC1`, the No. of mice was 0 in the assay on Mus musculus [1]; 5 with Mus musculus [2]; 2 in the assay on Mus musculus [3]; 0 with Mus musculus [4]; 0 in the assay with Mus musculus [5]; 1 with Mus musculus [6]. Also, the No. of mice is 3 with Mus musculus [7] and 0 in the assay with Mus musculus [8].

In the case of `O[C@H]1CC[C@](c2ccccc2)(N2CCCCC2)CC1`, the No. of mice in the assay with Mus musculus [9] came to 4; in the assay with Mus musculus [2], 0; with Mus musculus [4], 0; in the assay on Mus musculus [10] it was 3; with Mus musculus [5] it was 0; in the assay with Mus musculus [6] it was 0. The figures for the No. of mice with Mus musculus [11] and in the assay with Mus musculus [8] were 1 and 0, respectively.

The values are drawn from ChEMBL document CHEMBL1121693 (1981).
